Experiment: Inhibition of Escherichia coli thymidylate synthase

IC50: 2300 nM
Compound: Cc1nc(=O)c2cc(CN(C)c3ccc(C(=O)N[C@@H](CCC(=O)O)C(=O)O)s3)ccc2[nH]1 [RALTITREXED]
